Assay results: paper PMC7872424, “Mining Natural Products for Macrocycles to Drug Difficult Targets” (Journal of Medicinal Chemistry, 2020)

How the values were obtained:
Aqueous solubility = type: physicochemical
[1] = Clearance by human liver microsomes; type: in vitro ADME

SMILES: CC(=O)N1CCC[C@H]1C(=O)N[C@@H]1COC(=O)c2ccccc2CSC[C@H](C(=O)N(C)C)NC1=O [Compound 14, (4S,7R)-7-((S)-1-Acetylpyrrolidine-2-carboxamido)-N,N-dimethyl-6,10-dioxo-1,3,4,5,6,7,8,10-octahydrobenzo[j][1]oxa[8]thia[5]azacyclododecine-4-carboxamide]
- aqueous solubility (in words) (Aqueous solubility): high
- in vitro microsomal clearance (in words) [1]: medium
